From patent US20260306421A1, “SYSTEMS AND METHODS FOR TRANSDERMAN PATCH DELIVERY” (VITAMAX PATCH WHOLESALER LLC, priority 2022, published 2026)

Key:
[1] = Solubility of iron chloride hexahydrate and iron complexes (visual / assayed); type: physicochemical
Method: Due to the high number of test samples (6 complexes plus the starting material, iron chloride hexahydrate) a visual solubility screen was used to screen the solubility in a range of solvents. […] Quantitative determination was performed by either incubating the complex in excess in the solvent using a shaking 37° C. water bath for 48 h or sonicating it for 2 hours at 40° C. or leaving overnight on a 50° C. hot plate. Once incubation period was completed, the exact solubility in a particular solvent was assayed (using the iron assay) after centrifugation (i.e. assay iron content in the supernatant using the Ferrozine® assay).

[2] = Visual skin damage / necrosis after iron permeation study; details: after 24 h permeation study, porcine skin
Text: On the day of the experiment, the skin was defrosted. For the full thickness studies, the subcutaneous fat removed (2.5 mm thick) and for the dermatomes skin studies the tissued was dermatomed to a 1 mm thickness. The tissue was cut into the appropriate size sections (2.19±0.21 cm^2) and mounted between donor and receiver compartments of Franz diffusion cells with the SC facing the donor compartment. Each cell was sealed using parafilm and 12 mm magnetic stir bars were placed into the receiver compartment. The receiver compartment was filled with the desired receiver solution and the Franz cells were placed in a stirring water bath at 37° C. Cells were allowed to equilibrate for 30 min after which the receiver fluid using was mixed using a syringe and the “zero hour” sample was withdrawn from the arm and compensate with the same volume of fresh pre-warmed solution. Following zero-hour sampling, the donor solution was placed in the donor compartment and covered with parafilm. Samples were withdrawn and compensated with fresh receiver solution at set time intervals for a 24 h duration. The iron in each sample was quantified using the method specified in Section 2.2.2.1. […]

Row | Substance | visual solubility of complex ([1]; made at pH 4 and 7, PG, PEG4000 and Transcutul) [mg/mL] | skin damage / necrosis [2] | Solubility of complex (visual) ([1]; Glycerol) [mg/mL Iron oleate*] | Solubility of complex ([1]; Liquid Paraffin) [mg/mL Iron oleate] | Solubility, equivalent elemental iron ([1]; Liquid Paraffin) | Solubility of complex ([1]; Miglyol 810N) [mg/mL Iron oleate] | Solubility, equivalent elemental iron ([1]; Miglyol 810N) | Solubility of complex (visual) ([1]; PEG400) [mg/mL Iron oleate*] | Solubility of complex (visual) ([1]; PG) [mg/mL Iron oleate*] | Solubility of complex (visual) ([1]; Transcutul) [mg/mL Iron oleate*] | Solubility of complex (visual) ([1]; Triaceten) [mg/mL Iron oleate*]
1 | iron hexanoate | < 20 | – | – | – | – | – | – | – | – | – | –
2 | iron oleate | – | no observed skin damage | <8 | 680 | Equivalent to 41 mg/mL elemental iron | 200 | Equivalent to 12.5 mg/mL elemental iron | <8 | <8 | <8 | <8
